# Experimental data taken from patent US5612056A, “Transdermal formulations” (priority 1991, dated 1997).
# System: guinea pig
# Details: in vivo
substance,measurement,value
Propionic Acid,deaths,One animal in this group died within 24 hrs of treatment
same,signs of cholinesterase poisoning in remaining animals,all other animals showed no signs of cholinesterase poisoning
